Drawing on ChEMBL document CHEMBL1147690, “A cassette-dosing approach for improvement of oral bioavailability of dual TACE/MMP inhibitors” (Bioorg Med Chem Lett, 2006), this text covers Ki for one compound.

For this assay, the target named is Collagenase 3 (Homo sapiens, UniProt P45452). The assay is described as follows: Binding affinity to recombinant MMP13.

A word on the Ki: it is the equilibrium dissociation constant of an inhibitor or competing ligand from its target. In the case of `CN1C(=O)N(C[C@H](C(=O)NO)[C@@H](CC2CCCC2)C(=O)N2CCCCC2)C(=O)C1(C)C`, the Ki worked out at 1 nM.
